Data: patent US9567339B2, “Primary carboxamides as BTK inhibitors” (AbbVie Inc., priority 2013, dated 2017)

Amino acid sequences for entries named in this document (tags omitted). Residues count along the entry.
UniProt Q06187, 393-659: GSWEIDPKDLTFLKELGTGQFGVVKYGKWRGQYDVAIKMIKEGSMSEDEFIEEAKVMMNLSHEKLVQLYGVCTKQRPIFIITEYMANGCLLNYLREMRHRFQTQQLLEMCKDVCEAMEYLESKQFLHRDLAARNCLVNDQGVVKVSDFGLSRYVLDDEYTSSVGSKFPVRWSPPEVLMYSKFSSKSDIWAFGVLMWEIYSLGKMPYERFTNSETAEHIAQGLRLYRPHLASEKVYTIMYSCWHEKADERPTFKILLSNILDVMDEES

Biological target: BTK, recombinant human catalytic domain (aa 393-659) (Homo sapiens (Human), UniProt Q06187)
Test: In vitro BTK kinase activity measured by time-resolved fluorescence resonance energy transfer (trFRET)
Assay type: biochemical
Conditions: 0.001 mM ATP, biotin-TYR1 peptide substrate

Q: `C=CC(=O)Nc1cccc(-c2ccc(C(N)=O)c3[nH]c(-c4ccccc4S(C)(=O)=O)cc23)c1C` [A.1.34] was tested. Which IC50 did it give?
A: 100 to 1000 nM
